Data from patent US10117912B2 (priority 2013, dated 2018).

Chains of the proteins cited; added tags and fusions are not shown. Lines headed by an entry give the natural chain unless they say otherwise; changes in a name come on top. Residues count along the entry.
UniProt P06276, 29-602 limits assumed: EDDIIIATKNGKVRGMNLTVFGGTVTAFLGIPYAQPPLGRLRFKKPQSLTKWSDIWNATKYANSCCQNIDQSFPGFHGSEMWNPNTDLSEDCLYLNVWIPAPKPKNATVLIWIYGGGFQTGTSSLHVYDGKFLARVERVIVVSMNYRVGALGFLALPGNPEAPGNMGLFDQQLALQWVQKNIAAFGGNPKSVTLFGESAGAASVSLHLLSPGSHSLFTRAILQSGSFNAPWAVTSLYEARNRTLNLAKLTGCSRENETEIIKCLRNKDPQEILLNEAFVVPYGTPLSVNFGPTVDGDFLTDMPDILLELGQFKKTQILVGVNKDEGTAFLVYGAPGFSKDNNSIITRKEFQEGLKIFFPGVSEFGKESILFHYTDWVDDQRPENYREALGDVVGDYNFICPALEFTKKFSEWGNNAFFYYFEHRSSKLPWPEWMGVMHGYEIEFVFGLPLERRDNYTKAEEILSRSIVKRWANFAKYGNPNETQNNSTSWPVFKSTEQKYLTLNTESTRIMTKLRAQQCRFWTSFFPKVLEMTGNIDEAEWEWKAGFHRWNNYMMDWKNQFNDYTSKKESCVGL
UniProt Q9NY33: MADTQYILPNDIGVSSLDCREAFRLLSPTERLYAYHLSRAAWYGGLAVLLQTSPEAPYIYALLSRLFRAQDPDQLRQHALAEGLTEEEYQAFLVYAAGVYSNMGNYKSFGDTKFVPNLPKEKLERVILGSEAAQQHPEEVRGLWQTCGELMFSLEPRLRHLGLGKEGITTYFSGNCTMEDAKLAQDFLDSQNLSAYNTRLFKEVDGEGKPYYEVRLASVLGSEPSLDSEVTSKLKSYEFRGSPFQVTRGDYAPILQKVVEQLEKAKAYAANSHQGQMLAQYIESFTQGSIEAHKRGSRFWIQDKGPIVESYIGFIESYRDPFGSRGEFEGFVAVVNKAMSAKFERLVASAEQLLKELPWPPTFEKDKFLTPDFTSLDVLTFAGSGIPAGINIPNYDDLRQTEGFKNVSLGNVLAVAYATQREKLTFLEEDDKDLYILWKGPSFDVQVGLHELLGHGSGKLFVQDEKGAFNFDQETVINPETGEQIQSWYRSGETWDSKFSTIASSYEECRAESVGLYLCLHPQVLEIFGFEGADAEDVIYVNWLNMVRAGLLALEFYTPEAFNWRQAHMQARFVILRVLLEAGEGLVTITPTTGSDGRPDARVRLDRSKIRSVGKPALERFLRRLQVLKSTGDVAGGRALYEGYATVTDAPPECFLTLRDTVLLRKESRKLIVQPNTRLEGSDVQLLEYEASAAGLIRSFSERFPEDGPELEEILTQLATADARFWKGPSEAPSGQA
UniProt P15144: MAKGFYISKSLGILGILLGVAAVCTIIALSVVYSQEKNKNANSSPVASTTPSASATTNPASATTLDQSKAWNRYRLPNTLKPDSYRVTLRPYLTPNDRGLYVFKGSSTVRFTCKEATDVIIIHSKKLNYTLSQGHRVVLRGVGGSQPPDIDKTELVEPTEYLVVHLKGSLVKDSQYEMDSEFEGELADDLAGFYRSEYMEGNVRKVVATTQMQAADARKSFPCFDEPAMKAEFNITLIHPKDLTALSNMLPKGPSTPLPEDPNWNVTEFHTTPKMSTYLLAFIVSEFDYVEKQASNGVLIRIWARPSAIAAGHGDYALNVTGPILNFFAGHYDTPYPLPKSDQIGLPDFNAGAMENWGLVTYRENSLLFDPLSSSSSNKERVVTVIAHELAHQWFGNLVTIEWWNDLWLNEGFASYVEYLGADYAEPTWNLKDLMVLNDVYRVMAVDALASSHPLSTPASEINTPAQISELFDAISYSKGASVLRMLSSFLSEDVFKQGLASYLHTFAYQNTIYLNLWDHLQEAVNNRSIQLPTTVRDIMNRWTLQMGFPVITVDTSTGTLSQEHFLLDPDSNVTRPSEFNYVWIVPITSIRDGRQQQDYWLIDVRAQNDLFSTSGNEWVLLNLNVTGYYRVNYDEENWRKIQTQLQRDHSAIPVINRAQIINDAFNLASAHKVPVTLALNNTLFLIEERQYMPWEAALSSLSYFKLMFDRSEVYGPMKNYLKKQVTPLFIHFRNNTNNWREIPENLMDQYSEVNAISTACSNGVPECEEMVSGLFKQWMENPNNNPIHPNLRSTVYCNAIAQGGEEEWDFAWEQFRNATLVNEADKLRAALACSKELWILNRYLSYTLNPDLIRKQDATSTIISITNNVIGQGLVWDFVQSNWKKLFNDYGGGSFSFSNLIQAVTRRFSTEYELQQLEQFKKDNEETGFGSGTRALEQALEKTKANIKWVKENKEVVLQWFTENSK

What was measured:
[1] = tested on: Aspergillus oryzae protease; assay: Avizafone converting enzyme screening and kinetics, Aspergillus oryzae protease
[2] = tested on: MDCKII-wt monolayers
[3] = tested on: MDCKII-wt monolayer
[4] = tested on: Proteinase from Aspergillus melleus (protease EC number 232-642-4); assay: Conversion of avizafone with Aspergillus melleus protease (UV absorbance 240 nm); details: 129.9 uM avizafone, enzyme 0.25-2 U/mL, 32 degree C., 30 min
[5] = target: butyrylcholinesterase (Homo sapiens, UniProt P06276); assay: Avizafone converting enzyme screening, butyrylcholinesterase; details: avizafone with enzyme 0.25-2 U/mL, 10 min, 32° C., pH 7.4
[6] = target: dipeptidyl peptidase III (Homo sapiens, UniProt Q9NY33); assay: Avizafone converting enzyme screening, dipeptidyl peptidase III; details: avizafone with enzyme 0.25-2 U/mL, 10 min, 32° C., pH 7.4
[7] = target: aminopeptidase N (Homo sapiens, UniProt P15144); assay: Avizafone converting enzyme screening, aminopeptidase N; details: avizafone with enzyme 0.25-2 U/mL, 10 min, 32° C., pH 7.4

SMILES	Km ([1]; read-out: Km (Michaelis-Menten), 0.25 U/ml protease, avizafone 69-3601 μM, conversion rate at 5 min, pH 7.4, 32° C., ± s.e.m) [µM]	Vmax (Michaelis-Menten) ([1]; 0.25 U/ml protease, avizafone 69-3601 μM, conversion rate at 5 min, pH 7.4, 32° C.) [µM/s]	change in absorbance at 240 nm (prodrug conversion) ([1]; avizafone with enzyme 0.25-2 U/mL, after 10 min, 32° C., pH 7.4)	kcat ([1]; cenz=108 μM (4 U/mL)) [s⁻¹]	effect on TEER (monolayer integrity) ([2]; 2 h treatment, pH 7.4, 32° C., enzyme 4 U/mL)	TEER value ([2]; prodrug-enzyme mixtures prepared at S=10.2, protease 4 U/mL, 2 h)	amount of prodrug accumulated in the basal side ([3]; avizafone at 116 μM, S=0.9, no enzyme, after 2 h)	conversion of prodrug to parent drug on the apical side ([3]; avizafone at S=5.6, cenz=4 U/mL protease, after 2 h) [%]	prodrug in apical solutions ([3]; avizafone without enzyme, after 2 h) [%]	prodrug permeated into the basal side ([3]; avizafone without enzyme, over 2 h) [%]	prodrug concentration at which avizafone flux saturated ([3]; without enzyme) [µM]	conversion of avizafone (UV absorbance at 240 nm) [4]	change in absorbance at 240 nm (prodrug conversion) [5]	change in absorbance at 240 nm (prodrug conversion) [6]	change in absorbance at 240 nm (prodrug conversion) [7]
CN(C(=O)CNC(=O)[C@@H](N)CCCCN)c1ccc(Cl)cc1C(=O)c1ccccc1	1500														
CN(C(=O)CNC(=O)[C@@H](N)CCCCN)c1ccc(Cl)cc1C(=O)c1ccccc1.Cl.Cl		1369 ± 94	increase in absorbance	12.7	unaffected	> 60 Ω/cm^2	negligible amount	80	80	≤ 10	≥ 1130	conversion of Avizafone in a dose dependent manner	no change in absorbance	no change in absorbance	no change in absorbance
